Ab-14 light chain CDR variants: yeast mating affinities

Source: Li et al. 2023 (doi:10.1038/s41467-023-39022-2), MIT Lincoln Laboratory and A-Alpha Bio; data file from the FLAb repository.

Target: peptide PDVDLGDISGINAS, taken from heptad repeat 2 (HR2) of SARS-CoV-2 spike.

Ab-14 is the parent antibody, in scFv form: VH, then a (GGGGS)3 linker, then VL. The heavy chain is unchanged in all variants.
VH: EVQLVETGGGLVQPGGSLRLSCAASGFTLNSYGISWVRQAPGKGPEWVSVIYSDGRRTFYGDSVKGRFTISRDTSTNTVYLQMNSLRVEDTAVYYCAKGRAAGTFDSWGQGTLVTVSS
VL: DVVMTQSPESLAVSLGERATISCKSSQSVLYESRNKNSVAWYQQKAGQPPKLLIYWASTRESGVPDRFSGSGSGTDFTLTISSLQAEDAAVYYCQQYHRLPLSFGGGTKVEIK

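The parent was found by panning a naive human phage display library on the peptide. Designed CDR sequences, proposed from the first random library and measured here. Group labels follow the data file (Ctrl: baseline library sampled from a position-specific scoring matrix, with some repeated check sequences; Rand: our label for a block that the file lists under HC and that is probably the random mutants of the ten best first-round binders; En: ensemble of fine-tuned language models; GP: Gaussian process model; GPLM: also part of the Gaussian process libraries; HC: hill climbing; Gen: genetic algorithm; Gibbs: Gibbs sampling; a sequence that several methods proposed may carry one label only). AlphaSeq pools MATa yeast showing the antibodies with MATalpha yeast showing the peptide. The frequency of each diploid, read from paired DNA barcodes, reflects how well the two displayed proteins bind. Each replicate has its own calibration line, from reference interactions of the BCL2 family. There are six technical replicates.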

Each variant is given by its three light chain CDRs, as the data file delimits them; those of the parent are KSSQSVLYESRNKNSVA, WASTRES, QQYHRLPLS.
Values are log10 of the apparent Kd in nM; lower means stronger binding.
Averages over replicates are reported, and they cover detected replicates only.
Where no diploid with the target was found in any replicate, the entry reads "not detected": below detection, most likely a poor binder, though not proof of it.
Values of this round are not directly comparable with the first-round values of the same sequences.
Background: pairings of all light chain designs with three empty control strains gave a value in 4% of cases (median 2.64, 5th percentile 1.59). Values in that range, when seen in few replicates, are hard to tell from nonspecific mating.
The authors' rule: three or more of the six replicates give a measured affinity, fewer mean a poor binder.

| # | log10 Kd (nM), mean | seen in | CDR-L1 | CDR-L2 | CDR-L3 | group |
|---|---|---|---|---|---|---|
| 1 | 0.24 | 6 of 6 | KMSQSNPYEDRNWNSVA | NASKRLS | QQYHRLPLS | GP_Gibbs |
| 2 | not detected | 0 of 6 | KSSQSDLYESRNEHSVA | WHSTRES | QQYHHLPLS | Ctrl |
| 3 | 0.29 | 6 of 6 | KSDQGVLYESRNKNSVA | GASTRES | QQYHRLPLH | GP_HC |
| 4 | -0.23 | 6 of 6 | KLSQSVPYESRNKNSVA | NASTREV | QQYHRLPLS | GP_Gen |
| 5 | 1.32 | 6 of 6 | KLTMITGLEKVSTSNVA | EMETREE | QQYNRLPLS | En_Gen |
| 6 | -0.23 | 6 of 6 | KLSMSVLYESRNKNSVA | EASQRES | QQYHRLPLS | GP_Gen |
| 7 | 0.21 | 6 of 6 | IAQQSWLYESRNKNSVA | GASTRES | QQYHRLPLI | GP_HC |
| 8 | -0.13 | 6 of 6 | KLSFSELFESRNKNSVA | DASTRES | QQYHRLPLS | GP_HC |
| 9 | -0.30 | 6 of 6 | KFSQSVLYEDRNKNSVA | DASQRES | QQYHRLPLS | GP_Gen |
| 10 | 0.89 | 6 of 6 | KLRQSTKYESRNENSVA | WASTRES | QQYHRLPLS | Rand |
| 11 | -0.11 | 6 of 6 | KSLQSQEYESRNKNSVA | HASTRED | QQYHRLPLS | GP_HC |
| 12 | -0.58 | 6 of 6 | VLPDNLLMKESQYHSIA | NGDQRME | QQYMRLPLM | En_Gibbs |
| 13 | -0.13 | 6 of 6 | KLSQSVMYESRNKNNVA | SASTRES | QQYHRLPLS | GP_Gen |
| 14 | 0.92 | 6 of 6 | MITGSMENEWSNKNPVA | SATCKAP | QQYFRLPLM | En_Gibbs |
| 15 | 0.99 | 6 of 6 | KLPQATMQESVSKNNVA | ELSTRGS | QQYHRLPLS | En_HC |
| 16 | 0.62 | 6 of 6 | TISQSWLVESRNKNNVA | EMSTREN | QDYDRLPLS | En_HC |
| 17 | not detected | 0 of 6 | KSSQSVLYESRNFNSVA | DASLRES | QQVHRLPLS | Ctrl |
| 18 | 1.59 | 6 of 6 | KSSQSVLYESNNKNSVA | WASTRES | QQYHRLPLS | Ctrl |
| 19 | 1.70 | 5 of 6 | KISYMGEHFSTNHSAIA | QASTREA | QQYHRLPIS | En_HC |
| 20 | -0.59 | 6 of 6 | KLQQSVEYESRNKNNVA | EASTRES | QQYHRLPLS | GP_Gen |
| 21 | 2.30 | 5 of 6 | KSSQSVLYESRNKNSVA | RASTRES | QQYSRLPLS | Ctrl |
| 22 | 1.85 | 6 of 6 | KLSPSQLYWSRNFNSVA | QASTRET | QQYHRLPLS | GP_Gibbs |
| 23 | 0.22 | 6 of 6 | KLSQQHLYESRNKNSVA | NASTRES | QQYHRLPLS | GP_Gen |
| 24 | 2.09 | 6 of 6 | KSSQSVLYESNNKNSVA | WASTRES | QQYHRLPVS | Ctrl |
| 25 | -0.04 | 6 of 6 | KYSQSWLYESRNKNSVA | GASSRES | QQYHRLPLS | GP_HC |
| 26 | 1.57 | 6 of 6 | KSPQSTLYESRNMNSVA | WASTRES | QQYHRLPLS | Ctrl |
| 27 | 0.76 | 6 of 6 | MLTWGDDHETGHQNSIA | HAHERNT | QQYHQLPLT | En_Gibbs |
| 28 | 0.28 | 6 of 6 | NVGGEDPGQWHMKDSIA | GSSLRAE | QQYWRLPLL | En_Gibbs |
| 29 | 0.11 | 6 of 6 | KLEQSDLYESRNKQSVA | NASERES | QQYHRLPLS | GP_Gibbs |
| 30 | 0.87 | 6 of 6 | KSSQSVLYESRNKNSVA | EASTRET | QQYDRLPLS | Ctrl |
| 31 | 0.01 | 6 of 6 | KLSQSVLYESRNKNSVA | EASTRES | QDYHRLPLS | GP_Gen |
| 32 | -0.33 | 6 of 6 | HSSPSVLYESRNKNNVA | NASTRED | QQYHRLPLS | GP_HC |
| 33 | 1.31 | 6 of 6 | TISQMFLGESRNRNSVA | QAQTRES | QSYDRLPLS | En_HC |
| 34 | 0.08 | 6 of 6 | KLSQSVLYESRNKNSVA | NASTRYS | QQYHRLPLS | GP_Gen |
| 35 | 0.26 | 6 of 6 | TLTQSFGMESHNKNSVA | DLSTRGS | QQYHRLPLS | En_HC |
| 36 | 0.06 | 6 of 6 | KLSQSVLYESREKNSVA | DASTRES | QQYHRLPLS | GP_Gen |
| 37 | 1.23 | 6 of 6 | NMEGVEFEIAQHGNSVA | GVDLREA | QQYFRLPLH | En_Gibbs |
| 38 | 0.32 | 6 of 6 | KFPQSNGYEQRNKNSVA | EASQREQ | QQYHRLPLS | GP_Gibbs |
| 39 | 0.60 | 6 of 6 | KFMQSVPYESRNLNNVA | HGSTRCS | QQYHRLPLS | GP_Gibbs |
| 40 | 0.06 | 6 of 6 | HAYQSGLYESRNQNSVA | SASMRSS | QQYHRLPLS | GP_Gibbs |
| 41 | -0.50 | 6 of 6 | KVSQSYLYESRNKNAVA | NASTRES | QQYHRLPLS | GP_Gen |
| 42 | 0.62 | 6 of 6 | KSSISYLYESENKASVA | EASQRES | QQYHRLPLS | GP_HC |
| 43 | 0.24 | 6 of 6 | KIGMTLNTMLHQKNNVA | DLVEREN | QQYFRLPLS | En_Gen |
| 44 | -0.56 | 6 of 6 | KMSQSVLYESRNKNSVA | DASTRES | QQYQRLPLS | GPLM_HC |
| 45 | 1.59 | 5 of 6 | KSSQSVLYESRNKNSVA | EASTRES | QQMHRLPLS | Ctrl |
| 46 | 0.70 | 6 of 6 | KSSQSVLDESQNKNSVA | EASTRES | QQYHRLPLS | Ctrl |
| 47 | 1.99 | 5 of 6 | KSSNSVLYESRNKNSVA | EASTRES | QQYHTLPLS | Ctrl |
| 48 | not detected | 0 of 6 | LIMKFMSQDGSARNNIA | GDTKLAQ | QHYHRLPLS | En_Gibbs |
| 49 | 0.14 | 6 of 6 | MISQSFLIGSRAKNSVA | QTSTREE | QQYDRLPLS | En_HC |
| 50 | 0.69 | 6 of 6 | KVSQSGLYESRNKNSVA | DASTRES | QQYHRLPLS | GP_Gen |

The first 5 entries again:

| CDR-L1 | CDR-L2 | CDR-L3 | group | log10 Kd (nM), mean | seen in |
|---|---|---|---|---|---|
| KMSQSNPYEDRNWNSVA | NASKRLS | QQYHRLPLS | GP_Gibbs | 0.24 | 6 of 6 |
| KSSQSDLYESRNEHSVA | WHSTRES | QQYHHLPLS | Ctrl | not detected | 0 of 6 |
| KSDQGVLYESRNKNSVA | GASTRES | QQYHRLPLH | GP_HC | 0.29 | 6 of 6 |
| KLSQSVPYESRNKNSVA | NASTREV | QQYHRLPLS | GP_Gen | -0.23 | 6 of 6 |
| KLTMITGLEKVSTSNVA | EMETREE | QQYNRLPLS | En_Gen | 1.32 | 6 of 6 |